The text below walks through data of PMC11061832, “Antiviral Rotenoids and Isoflavones Isolated from Millettiaoblata ssp. teitensis” (Journal of Natural Products, 2024).

“Also recorded” adds a separate entry of the source.

One data set concerns RSV. Kind of data set: RSV plaque reduction assay in HEp-2 cells. The settings on record: CC50 HEp-2 / anti-RSV IC50. (In general: In a plaque reduction assay, fewer plaques than in the control indicate reduced infectivity or spread.)
In the next data set the test system is HEp-2 cells. Kind of data set: Microscopic recording of cytostatic activity in compound-treated HEp-2 cells. The settings on record: microscopy, PCP poor cell proliferation, ACS altered cell shape, PCS poor cell staining, concentration(s) at which seen in brackets.

Consider `NC(=O)c1ncn([C@@H]2O[C@H](CO)[C@@H](O)[C@H]2O)n1` [ribavirin, reference compound], for which the “SI (CC50/IC50)” value in the data set with RSV is reported as above 9.4. In addition, in the data set with HEp-2 cells, the “cytotoxicity: cytostatic activity” value was “cytostatic activity at 100.0 μM; also recorded: PCP (100 μM)”.
